Structures are written as SMILES.

Usually LD50 stands for the dose expected to kill half of the subjects tested. Read a low LD50 as a more toxic substance.

This data set can be described thus: in vivo. To be noted: mouse, po.

For `CC(CCC(=O)O)(c1ccc(O)cc1)c1ccc(O)cc1` [Example 19, 4,4-Bis(4'-hydroxy-phenyl)pentanoic acid], the LD50 was found to be 4000 mg/kg.

For the origin of these results see patent US4007282A, “Lowering lipid and sugar levels in the blood with a bis(4-hydroxyphenyl)alkanoic acid or ester thereof” (Hoechst Aktiengesellschaft, priority 1972, dated 1977).
